# Source: US20100087406A1, “INDUCTION OF INNATE IMMUNITY BY VITAMIN D3 AND ITS ANALOGS” (CEDARS-SINAI MEDICAL CENTER, priority 2004, published 2010)
# Test system: CAMP
# Experiment: Induction of CAMP mRNA expression in U937 cells (QRT-PCR, RT-PCR, Northern blot)
# Type: cell-based, human
# Conditions: U937, initial screen, 24 h, QRT-PCR and Northern blot
substance,measurement,value
IL-2: cytokine,induction of CAMP expression,"only 1,25(OH)2D3 induced CAMP expression significantly"
